Like-named read-outs stand apart in the source and are kept apart here.
Test system: male Sprague-Dawley rats
Details: for Analgesic duration: IM, plantar test; for onset of action: intramuscular injection, sesame oil
[1] = dose 0.3 μM/kg, sesame oil solution

Row | Substance | Analgesic duration [1] [h] | onset of action (dose 0.3 μM/kg) [h] | Analgesic duration (dose 0.6 μM/kg) [h]
1 | Dibuprenorphine pimelate | 72 | 2 | –
2 | Buprenorphine palmitate | – | – | 96
3 | Dibuprenorphine sebacoyl ester | 96 | 2 | –
4 | Buprenorphine decanoate | – | – | 96

— patent US20050075361A1 (priority 2002, published 2005)
